Source: US20220184072A1 (priority 2019, published 2022)

Test system: C57 mice
Experiment: Formalin paw test (inflammatory pain model)
Assay type: in vivo
Settings: SC 1.0 mg/kg; 0-10 min

## O=C1CN2c3c(cccc3[C@@H]3CN(CCCOc4ccc(F)cc4)CC[C@@H]32)N1 [Example 1, (6bR,10aS)-8-(3-(4-fluorophenoxy)propyl)-6b,7,8,9,10,10a-hexahydro-1H-pyrido[3′,4′:4,5]pyrrolo[1,2,3-de]quinoxalin-2(3H)-one]
  Mean Behavior Rating (0-4): 1.3
